Source: article PMC12582325 (Proceedings of the National Academy of Sciences of the …, 2025)

Experiments:
Fg.Ste2 [1] = assay type: cell-based, Fusarium graminearum; conditions: Fg.Ste2 biosensor CPK366; 10 μM synthetic alpha pheromone; normalized to yEGFP background (receptor without pheromone); four biological replicates; Fig. 1E
Fo.Ste2 [2] = assay type: cell-based, Fusarium oxysporum
Bc.Ste2 [3] = assay type: cell-based, Botrytis cinerea
Ca.Ste2 = assay type: cell-based, Candida albicans
Fo.Ste2 [4] = assay type: cell-based, Fusarium oxysporum; remark: listed apart in the source
Bb.Ste2 [5] = assay type: cell-based, Beauveria bassiana; conditions: for Diploid frequency (%): 20 h coculture; for diploid frequency (%) / average (diploid colonies): GPCR strain GEN47 HIS; for average (diploid colonies): dilution 500, mean of Rep1-3; for Sup.Fig.7A - Bb, group mean: Mean from Tukey test details, n = 3; for diploid frequency (%), Plates, Bb: co-culture GEN110 + GEN111, individual replicates (n=3)
Hj Ste2 GPCR (Hj.Hpr2) = assay type: cell-based, Hypocrea jecorina
Bc.Ste2 [6] = assay type: cell-based, Botrytis cinerea; remark: listed apart in the source
Mo Ste2 GPCR = assay type: cell-based, Magnaporthe oryzae; conditions: Fig. 1D mating matrix; pheromone secreted by MATa strain, GPCR in MATα strain; deep well plate, 20 h coculture; three technical plating replicates
Nc Ste2 GPCR = assay type: cell-based, Neurospora crassa
[7] = test system: empty (strain lacking a GPCR); assay type: cell-based, Saccharomyces cerevisiae; conditions: Fig. 1D mating matrix; pheromone secreted by MATa strain, MATα strain lacking a GPCR (empty); deep well plate, 20 h coculture
Bb.Ste2 [8] = assay type: cell-based, Beauveria bassiana; conditions: YPL1 library cocultured with Bb.Ste2 strain GEN88, 20 h, 2 d diploid enrichment, NextSeq 500
Fo.Ste2 [9] = assay type: cell-based, Fusarium oxysporum; remark: listed apart in the source
Fg.Ste2 [10] = test system: Fg.Ste2
Bb.Ste2 [11] = assay type: cell-based, Beauveria bassiana
Hj.Hpr2 = assay type: cell-based, Hypocrea jecorina
[12] = test system: no_GPCR (negative control lacking a GPCR); assay type: cell-based, Saccharomyces cerevisiae
B. bassiana = assay type: cell-based, Beauveria bassiana
[13] = test system: F. oxysporum microconidia; test: Germination of F. oxysporum microconidia; assay type: cell-based, Fusarium oxysporum f. sp. lycopersici 4287; design: Germination of F. oxysporum microconidia (data of Sup.Fig.10): unit not given here; conditions: for Germination of F. oxysporum microconidia (data of Sup.Fig.10): 400 μM pheromone, 13 h, at least 300 spores counted
Protocol: For F. oxysporum microconidia production, the strain was grown for 3 to 4 d in liquid potato dextrose broth (PDB) at 28 °C and 170 rpm. Germination media ([10]) was used for assessing the spore germination. RE was prepared by removing 2-wk-old tomato plants from vermiculite and washing the roots to remove any adhering substrates ([11]).
Supplementary Figure 10. Germination of F. oxysporum microconidia after 13 h of incubation in Germination Media at a cell density of […] microconidia/mL. The assay was performed with 400 μM of pheromone. All points represent the average of three biological replicates in which at least 300 spores were counted. Statistical significance was determined through one-way analysis of variance (ANOVA) with Dunnett’s multiple comparisons (✱p ≤ 0.05).

F. oxysporum germ tubes = conditions: gradient of 400 μM pheromone against the solvent (50% methanol); 13 h; water-agar; three biological replicates; Fig. 5A

CSCC[C@H](NC(=O)[C@H](CS)NC(=O)[C@@H](N)Cc1c[nH]c2ccccc12)C(=O)N[C@@H](CCCNC(=N)N)C(=O)N1CCC[C@H]1C(=O)NCC(=O)N[C@@H](CCC(N)=O)C(=O)N1CCC[C@H]1C(=O)N[C@@H](CS)C(=O)N[C@@H](Cc1c[nH]c2ccccc12)C(=O)O [Bb]
Fold change yEGFP (Fg.Ste2 [1]): 3
Activation of Fo.Ste2 biosensor, in words (Fo.Ste2 [2]): strong activation
Fold change yEGFP (Fo.Ste2 [2]): 204
Effect on activation of Bc.Ste2 by Bc pheromone, in words (Bc.Ste2 [3]; 0.0005 μM Bc pheromone in combination with 10 μM peptide, four biological replicates, Fig. 2G): completely abolished
Bc.Ste2 + pheromones, biosensor response, group mean (Bc.Ste2 [3]; Bc + the named peptide, Bc alone mean 134.8, mean of n = 4): 1.214
Diploid frequency (%) (Ca.Ste2): 0.0%
Diploid frequency (%) (Fo.Ste2 [4]): 0.9% and 0.1%
average (diploid colonies) (Fo.Ste2 [4]): 2.67 and 3 and 2
diploid frequency (%) (Fo.Ste2 [4]): 0.93% and 1.04% and 0.7%
Diploid frequency (%) (Bb.Ste2 [5]; Fig. 1D mating matrix, pheromone secreted by MATa strain, GPCR in MATα strain, deep well plate, three technical plating replicates): 0.4%
Diploid frequency (%) (Bb.Ste2 [5]; Fig. 1F validation in culture tubes, secreted pheromone, three biological and three technical replicates): 6.2%
diploid frequency (%) (Bb.Ste2 [5]; co-culture replicate 1): 8.71%
average (diploid colonies) (Bb.Ste2 [5]; co-culture replicate 1): 48
diploid frequency (%) (Bb.Ste2 [5]; co-culture replicate 2): 6.15%
average (diploid colonies) (Bb.Ste2 [5]; co-culture replicate 2): 33
diploid frequency (%) (Bb.Ste2 [5]; co-culture replicate 3): 11.44%
average (diploid colonies) (Bb.Ste2 [5]; co-culture replicate 3): 65
Sup.Fig.7A - Bb, group mean (Bb.Ste2 [5]; UNB): 0.08073
diploid frequency (%), Plates, Bb (Bb.Ste2 [5]; UNB): 1.59% and 3.12% and 3.62%
diploid frequency (%), Plates, Bb (Bb.Ste2 [5]; pH=6): 0.53% and 1.24%
diploid frequency (%), Plates, Bb (Bb.Ste2 [5]; pH=7): 0.53% and 0.89%
Sup.Fig.7A - Bb, group mean (Bb.Ste2 [5]; ph=6 + HRP): 0.0078
Sup.Fig.7A - Bb, group mean (Bb.Ste2 [5]; ph=6): 0.049
Sup.Fig.7A - Bb, group mean (Bb.Ste2 [5]; ph=7): 0.001033
Diploid frequency (%) (Hj Ste2 GPCR (Hj.Hpr2)): 0.0%
Diploid frequency (%) (Bc.Ste2 [6]): 0.1%
diploid frequency (%) (Bc.Ste2 [6]): 0.19% and 0.1%
Diploid frequency (%) (Mo Ste2 GPCR): 0.0%
Diploid frequency (%) (Nc Ste2 GPCR): 0.0%
Diploid frequency (%) [7]: 0.1%
Enrichment after mating, reads per million minus library before coculture (Bb.Ste2 [8]): +307 RPM
diploid barcode qPCR signal relative to control (2^-dCt) (Fo.Ste2 [9]): 0.011 and 0.012
diploid barcode qPCR signal relative to control (2^-dCt) (Fg.Ste2 [10]; section A4, (GPCR strain) Fg, mean of Bio1-3): 0.001
diploid barcode qPCR signal relative to control (2^-dCt) (Fg.Ste2 [10]; section A4, column Fg, replicate Bio1): 0.004
diploid barcode qPCR signal relative to control (2^-dCt) (Fg.Ste2 [10]; section A4, column Fg, replicate Bio2): 0
diploid barcode qPCR signal relative to control (2^-dCt) (Fg.Ste2 [10]; section A4, column Fg, replicate Bio3): 0
diploid barcode qPCR signal relative to control (2^-dCt) (Fg.Ste2 [10]; section Cm, (GPCR strain) Fg, mean of Bio1-3): 0.034
diploid barcode qPCR signal relative to control (2^-dCt) (Fg.Ste2 [10]; section Cm, column Fg, replicate Bio1): 0.032
diploid barcode qPCR signal relative to control (2^-dCt) (Fg.Ste2 [10]; section Cm, column Fg, replicate Bio2): 0.042
diploid barcode qPCR signal relative to control (2^-dCt) (Fg.Ste2 [10]; section Cm, column Fg, replicate Bio3): 0.028
diploid barcode qPCR signal relative to control (2^-dCt) (Fg.Ste2 [10]; section SC, (GPCR strain) Fg, mean of Bio1-3): 0.0092
diploid barcode qPCR signal relative to control (2^-dCt) (Fg.Ste2 [10]; section SC, column Fg, replicate Bio1): 0.012
diploid barcode qPCR signal relative to control (2^-dCt) (Fg.Ste2 [10]; section SC, column Fg, replicate Bio2): 0.009
diploid barcode qPCR signal relative to control (2^-dCt) (Fg.Ste2 [10]; section SC, column Fg, replicate Bio3): 0.006
diploid barcode qPCR signal relative to control (2^-dCt) (Fg.Ste2 [10]; section Scramble, (GPCR strain) Fg, mean of Bio1-3): 0.0111
diploid barcode qPCR signal relative to control (2^-dCt) (Fg.Ste2 [10]; section Scramble, column Fg, replicate Bio1): 0.009
diploid barcode qPCR signal relative to control (2^-dCt) (Fg.Ste2 [10]; section Scramble, column Fg, replicate Bio2): 0.008
diploid barcode qPCR signal relative to control (2^-dCt) (Fg.Ste2 [10]; section Scramble, column Fg, replicate Bio3): 0.016
Sup.Fig.7B - Bb, group mean (Bb.Ste2 [11]; pH=6): 0.7667
Sup.Fig.7B - Bb, group mean (Bb.Ste2 [11]; pH=7): 0.65
qPCR, Bb + Bb (Bb.Ste2 [11]; ph=6): 0.042 and 0.063
diploid barcode qPCR signal relative to control (2^-dCt) (Hj.Hpr2): 0
diploid barcode qPCR signal relative to control (2^-dCt) ([12]; section A4, GPCR strain not given, mean of Bio1-3): 0.035
diploid barcode qPCR signal relative to control (2^-dCt) ([12]; section A4, column EMPTY, replicate Bio1): 0.013
diploid barcode qPCR signal relative to control (2^-dCt) ([12]; section A4, column EMPTY, replicate Bio2): 0.091
diploid barcode qPCR signal relative to control (2^-dCt) ([12]; section A4, column EMPTY, replicate Bio3): 0
diploid barcode qPCR signal relative to control (2^-dCt) ([12]; section Cm, GPCR strain not given, mean of Bio1-3): 0.002
diploid barcode qPCR signal relative to control (2^-dCt) ([12]; section Cm, column EMPTY, replicate Bio1): 0
diploid barcode qPCR signal relative to control (2^-dCt) ([12]; section Cm, column EMPTY, replicate Bio2): 0
diploid barcode qPCR signal relative to control (2^-dCt) ([12]; section Cm, column EMPTY, replicate Bio3): 0.005
diploid barcode qPCR signal relative to control (2^-dCt) ([12]; section SC, GPCR strain not given, mean of Bio1-3): 0.0013
diploid barcode qPCR signal relative to control (2^-dCt) ([12]; section SC, column EMPTY, replicate Bio1): 0
diploid barcode qPCR signal relative to control (2^-dCt) ([12]; section SC, column EMPTY, replicate Bio2): 0
diploid barcode qPCR signal relative to control (2^-dCt) ([12]; section SC, column EMPTY, replicate Bio3): 0.004
diploid barcode qPCR signal relative to control (2^-dCt) ([12]; section Scramble, GPCR strain not given, mean of Bio1-3): 0.0007
diploid barcode qPCR signal relative to control (2^-dCt) ([12]; section Scramble, column EMPTY, replicate Bio1): 0.002
diploid barcode qPCR signal relative to control (2^-dCt) ([12]; section Scramble, column EMPTY, replicate Bio2): 0
diploid barcode qPCR signal relative to control (2^-dCt) ([12]; section Scramble, column EMPTY, replicate Bio3): 0
Chemotropism of spores, group mean (B. bassiana): 9.26
chem. Index (B. bassiana): 7.14 and 7.87 and 12.77
Chemotropic response in Bb germ tubes (B. bassiana; 20 hours): significant chemotropic response
Germination of F. oxysporum microconidia (data of Sup.Fig.10) ([13]; biological replicate 1 (first line)): 15,55
Germination of F. oxysporum microconidia (data of Sup.Fig.10) ([13]; biological replicate 2 (second line)): 26,45
Germination of F. oxysporum microconidia (data of Sup.Fig.10) ([13]; biological replicate 3 (third line)): 18,65
Mean Diff, Solvent vs. peptide ([13]; Sup.Fig.10, Dunnett's multiple comparisons test, n = 3): 23,55
Mean 2 (peptide), germination ([13]; Sup.Fig.10, Solvent control mean 43,77, mean of n = 3): 20,22
Effect on F. oxysporum microconidia germination, in words ([13]; exogenous addition of 400 μM peptide, 13 h in Germination Media, 3.2 x 106 microconidia/mL): significant reduction
Chemotropic response in F. oxysporum germ tubes (F. oxysporum germ tubes): did not

Several values for one entry are separate records, joined by “and”; a condition that tells them apart may be missing. Equal entries are not always repeated. Where two headings read alike, the source gives them in different places.
